These results are taken from ChEMBL document CHEMBL1136547, “2,3-Diarylbenzopyran derivatives as a novel class of selective cyclooxygenase-2 inhibitors” (Bioorg Med Chem Lett, 2003).

The target of this experiment is T1, Prostaglandin G/H synthase 2 (Mus musculus, UniProt Q05769).
T1 sequence (Q05769 whole entry): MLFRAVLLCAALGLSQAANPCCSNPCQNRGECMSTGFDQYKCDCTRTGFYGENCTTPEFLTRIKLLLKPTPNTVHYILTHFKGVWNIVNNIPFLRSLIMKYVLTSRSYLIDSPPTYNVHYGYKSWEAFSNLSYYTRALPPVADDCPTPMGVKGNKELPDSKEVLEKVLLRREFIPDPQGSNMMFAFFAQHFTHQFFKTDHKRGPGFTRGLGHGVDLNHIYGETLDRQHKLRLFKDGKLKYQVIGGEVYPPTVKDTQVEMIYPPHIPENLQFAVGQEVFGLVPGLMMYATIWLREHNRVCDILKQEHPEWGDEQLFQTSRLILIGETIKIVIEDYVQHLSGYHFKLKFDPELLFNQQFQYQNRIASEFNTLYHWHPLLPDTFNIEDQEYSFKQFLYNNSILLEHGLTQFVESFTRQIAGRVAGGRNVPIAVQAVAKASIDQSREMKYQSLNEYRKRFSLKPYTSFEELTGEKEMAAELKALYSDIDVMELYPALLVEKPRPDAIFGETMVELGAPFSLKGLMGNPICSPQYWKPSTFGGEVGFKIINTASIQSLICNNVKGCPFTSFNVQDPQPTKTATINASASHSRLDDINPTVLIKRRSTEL
The experiment can be described thus: In vitro inhibitory concentration against prostaglandin G/H synthase 2 using freshly harvested mouse peritoneal macrophages.

Molecules are shown by their SMILES.

As for `CS(=O)(=O)c1ccc(-c2oc3ccccc3c(=O)c2-c2cccnc2)cc1`, the half-maximal inhibitory concentration (IC50) is 1.32 µM. This lies in the single-digit micromolar range.
